Results taken from US9598423B2 (dated 2017).

Sequences of proteins named here, by UniProt entry; tags and fusion partners are left off. A change or cut given only in a name is not applied to a line headed by its entry.
UniProt P48730: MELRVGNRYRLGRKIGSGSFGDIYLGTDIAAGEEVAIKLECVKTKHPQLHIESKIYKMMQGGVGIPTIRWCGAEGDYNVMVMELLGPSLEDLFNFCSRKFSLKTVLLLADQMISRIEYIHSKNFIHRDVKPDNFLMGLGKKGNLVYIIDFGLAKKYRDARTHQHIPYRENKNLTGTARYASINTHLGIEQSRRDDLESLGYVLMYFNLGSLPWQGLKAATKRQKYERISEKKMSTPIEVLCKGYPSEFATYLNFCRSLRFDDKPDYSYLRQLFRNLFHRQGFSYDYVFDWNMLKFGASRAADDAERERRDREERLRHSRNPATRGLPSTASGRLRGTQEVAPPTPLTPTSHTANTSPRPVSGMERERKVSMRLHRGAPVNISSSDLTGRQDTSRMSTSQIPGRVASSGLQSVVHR
UniProt P49674: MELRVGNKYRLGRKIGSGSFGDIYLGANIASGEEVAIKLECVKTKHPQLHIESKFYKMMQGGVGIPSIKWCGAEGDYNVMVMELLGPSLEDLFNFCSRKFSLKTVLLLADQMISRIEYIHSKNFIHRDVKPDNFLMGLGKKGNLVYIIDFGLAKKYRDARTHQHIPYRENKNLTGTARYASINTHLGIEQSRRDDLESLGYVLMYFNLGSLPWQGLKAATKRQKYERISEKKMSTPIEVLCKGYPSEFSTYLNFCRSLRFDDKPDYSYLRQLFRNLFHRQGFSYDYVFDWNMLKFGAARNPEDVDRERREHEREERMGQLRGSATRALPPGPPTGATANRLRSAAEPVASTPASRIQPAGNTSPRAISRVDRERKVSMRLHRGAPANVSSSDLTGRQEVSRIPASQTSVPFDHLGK

Assays:
[1] = target: CK1δ (Homo sapiens (Human), UniProt P48730); experiment: CK1δ kinase assay (Caliper LABCHIP electrophoretic separation of fluoresceinated peptide substrate and product); conditions: CK1δ (IC50, nM), 200 pM CK1δ, 50 μM ATP, 1.5 μM peptide substrate, 22 hours at room temperature
[2] = target: CK1ε (Homo sapiens (Human), UniProt P49674); experiment: CK1ε kinase assay (Caliper LABCHIP electrophoretic separation of fluoresceinated peptide substrate and product); conditions: CK1ε (IC50, nM), 200 pM CK1ε, 50 μM ATP, 1.5 μM peptide substrate, 22 hours at room temperature

IC50 [1] | SMILES | IC50 [2]
10 to 100 nM | N#Cc1ccc(NC(=O)N2Cc3c(C(N)=O)c(-c4cccc(F)c4)nn3C(CF)C2)cc1 (single isomer, unassigned) [Compound A76, N^5-(4-Cyanophenyl)-7-(fluoromethyl)-2-(3-fluorophenyl)-6,7-dihydropyrazolo[1,5-a]pyrazine-3,5(4H)-dicarboxamide] | –
– | N#Cc1ccc(NC(=O)N2Cc3c(C(N)=O)c(-c4ccc(F)c(Cl)c4)nn3C(C(F)(F)F)C2)cc1 (single isomer, unassigned) [Compound A84, 2-(3-Chloro-4-fluorophenyl)-N^5-(4-cyanophenyl)-7-(trifluoromethyl)-6,7-dihydropyrazolo[1,5-a]pyrazine-3,5(4H)-dicarboxamide] | 10 to 100 nM
– | CC(C)(C)[C@@H]1CN(C(=O)Nc2ccc(C#N)cc2)Cc2c(C(N)=O)c(-c3ccc(F)c(Cl)c3)nn21 [Compound A81, 7-(tert-Butyl)-2-(3-chloro-4-fluorophenyl)-N-(4-cyanophenyl)-6,7-dihydropyrazolo[1,5-a]pyrazine-3,5(4H)-dicarboxamide] | 10 to 100 nM
